Laboratory results published in patent US20220213145A1 (Bicycle, published 2022).

T1: human CD137 protein (direct binding assay) (human, UniProt Q07011 24-186, limits assumed)
T1 construct: Soluble CD137 protein titrated from 3 uM in the fluorescence polarisation assay; also called hCD137; TNFRSF9
T1 sequence (looked up): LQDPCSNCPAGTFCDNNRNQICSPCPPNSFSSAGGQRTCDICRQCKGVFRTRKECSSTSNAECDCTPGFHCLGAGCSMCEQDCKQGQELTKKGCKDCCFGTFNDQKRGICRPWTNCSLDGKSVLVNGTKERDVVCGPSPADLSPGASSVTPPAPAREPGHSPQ

T2: human CD137 (AcroBiosystems) protein (human, UniProt Q07011 24-186)
T2 construct: also called hCD137
T2 sequence (looked up): T1 sequence (looked up)

T3: Recombinant human CD137 homotrimer (R&D systems), biotinylated (human, UniProt Q07011 24-186, limits assumed, biotinylated with EZ-Link Sulfo-NHS-LC-LC-Biotin)
T3 construct: also called biotinylated CD137
T3 sequence (looked up): T1 sequence (looked up)

B1: BCY7173 (peptide)
peptide: ACIEEXQYCFADPYXCA
modifications: [PEG3]-ACIEE-Aib-QYCFADPY[Nle]CA; fluorescein-labelled; cyclised on TATA
notes: also called [PEG3]-(74-01-04) Aib4 Nle12
B2: BCY7164 (peptide)
peptide: ACIEEXQYCFADPYXCA
modifications: [PEG3]-ACIEE-Sar-QYCFADPY[Nle]CA; fluorescein-labelled; cyclised on TATA
notes: also called [PEG3]-(74-01-04) Sar4 Nle12
B3: BCY7165 (peptide)
peptide: ACIEEKQYCFADPYXCA
modifications: [PEG3]-ACIEE-DLys-QYCFADPY[Nle]CA; fluorescein-labelled; cyclised on TATA
notes: also called [PEG3]-(74-01-04) D-Lys4 Nle12
B4: BCY7172 (peptide)
peptide: ACIEEXQYCFADPYXCA
modifications: [PEG3]-ACIEE-MeDala-QYCFADPY[Nle]CA; fluorescein-labelled; cyclised on TATA
notes: also called [PEG3]-(74-01-04) N-Me-D-Ala4 Nle12
B5: BCY7297 (peptide)
peptide: ACIEEXQYCFADPYXCA
modifications: [PEG3]-ACIEEaQYCFADPY(Nle)CA (a = D-Ala); fluorescein-labelled; cyclised on TATA
notes: also called [PEG3]-(74-01-04) D-Ala4 Nle12; D-Ala4 peptide

Molecular target: T1, human CD137 protein (direct binding …)
Test: FP direct binding

Row | Binder | Kd
1 | ACLDPGPYCYADPYMCTFH (ACLDPGPYCYADPYMCTFH-Sar6-K; fluorescein-labelled; cyclised on TATA, also called (74-13-00-T02)-Sar6-K) [BCY7119] | 144 nM
2 | ACLDEGPFCFSDPYMCA (ACLDEGPFCFSDPYMCA-Sar6-K; fluorescein-labelled; cyclised on TATA, also called (74-01-24-N002)-Sar6-K) [BCY7261] | 453 nM
3 | ACINEGPYCFADPYMCA (ACINEGPYCFADPYMCA-Sar6-K; fluorescein-labelled; cyclised on TATA, also called (74-01-21-N002)-Sar6-K) [BCY7255] | 136 nM
4 | ACVEEGPFCFADPYYCA (ACVEEGPFCFADPYYCA-Sar6-K; fluorescein-labelled; cyclised on TATA, also called (74-01-23-N002)-Sar6-K) [BCY7259] | 105 nM
5 | ACIEPGPFCYADPYMCNRV (G-Sar5-ACIEPGPFCYADPYMCNRV; fluorescein-labelled; cyclised on TATA, also called (B-Ala)-Sar5-(74-19-00-T01)) [BCY661] | 412 nM
6 | ACLEPGPYCYADPYMCTHL (ACLEPGPYCYADPYMCTHL-Sar6-K; fluorescein-labelled; cyclised on TATA, also called (74-20-00-T01)-Sar6-K) [BCY7120] | 160 nM
7 | ACIEEGQYCYADPYLCSVG ((Fl)G-Sar5-ACIEEGQYCYADPYLCSVG; fluorescein-labelled; cyclised on TATA, also called (B-Ala)-Sar5-(74-01-09-T03)) [BCY648] | 228 nM
8 | ACLPPGPYCFPDPYFCA (ACLPPGPYCFPDPYFCA-Sar6-K; fluorescein-labelled; cyclised on TATA, also called (74-22-03-N004)-Sar6-K) [BCY7122] | 147 nM
9 | CIEEGKYCFADPYMC (Ac-CIEEGK(Peg12)YCFADPYMC; fluorescein-labelled; cyclised on TATA, also called Ac-(74-01-04)Lys5(PEG12)) [BCY7242] | 48.3 nM
10 | CIEEGQYCFKDPYMC (Ac-CIEEGQYCFK(Peg12)DPYMC; fluorescein-labelled; cyclised on TATA, also called Ac-(74-01-04)Lys8(PEG12)) [BCY7245] | 777 nM
11 | ACDIGPPYCYRDMYMCA (ACDIGPPYCYRDMYMCA-Sar6-K; fluorescein-labelled; cyclised on TATA, also called (74-01-16)-Sar6-K) [BCY655] | 1340 nM
12 | ACDEWGLYCFAHPDCA (ACDEWGLYCFAHPDCA-Sar6-K; fluorescein-labelled; cyclised on TATA, also called (74-02-01)-Sar6-K) [BCY659] | 1040 nM
13 | ACIEEGQYCYADHQLCA (ACIEEGQYCYADHQLCA-Sar6-K; fluorescein-labelled; cyclised on TATA, also called (74-01-05)-Sar6-K) [BCY642] | 246 nM
14 | ACIEEGQYCYRDMYMCA ([Ac]ACIEEGQYCYRDMYMCA-Sar6-K(Fl); fluorescein-labelled; cyclised on TATA, also called Ac-(74-01-00)-Sar6-K(Fl)) [BCY634] | 1380 nM
15 | ACIEEGQYCYADPYMCA (ACIEEGQYCYADPYMCA-Sar6-K(Fl); fluorescein-labelled; cyclised on TATA, also called (74-01-01)-Sar6-K(Fl)) [BCY636] | 124 nM
16 | ACIEEGQYCHADPYMCA (ACIEEGQYCHADPYMCA-Sar6-K; fluorescein-labelled; cyclised on TATA, also called (74-01-13)-Sar6-K) [BCY652] | 142 nM
17 | ACIEEGQYCHADPYYCA (ACIEEGQYCHADPYYCA-Sar6-K; fluorescein-labelled; cyclised on TATA, also called (74-01-06)-Sar6-K) [BCY643] | 148 nM
18 | ACIEEGQYCHADPYFCA (ACIEEGQYCHADPYFCA-Sar6-K; fluorescein-labelled; cyclised on TATA, also called (74-01-07)-Sar6-K) [BCY644] | 145 nM
19 | ACIEEGQYCYADPYYCA (ACIEEGQYCYADPYYCA-Sar6-K; fluorescein-labelled; cyclised on TATA, also called (74-01-02)-Sar6-K) [BCY638] | 192 nM
20 | ACIEEGQYCFADPYLCA (ACIEEGQYCFADPYLCA-Sar6-K; fluorescein-labelled; cyclised on TATA, also called (74-01-11)-Sar6-K) [BCY650] | 86.5 nM

Row | Binder | Kd
21 | ACIEEGQYCYSDPYLCA (ACIEEGQYCYSDPYLCA-Sar6-K; fluorescein-labelled; cyclised on TATA, also called (74-01-10)-Sar6-K) [BCY649] | 207 nM
22 | ACIEEGQYCYSDPYYCA (ACIEEGQYCYSDPYYCA-Sar6-K; fluorescein-labelled; cyclised on TATA, also called (74-01-03)-Sar6-K) [BCY639] | 229 nM
23 | ACIEEGQYCFADPYMCA (ACIEEGQYCFADPYMCA-Sar6-K; fluorescein-labelled; cyclised on TATA, also called (74-01-04)-Sar6-K) [BCY640] | 84 nM
24 | ACIEEGQYCHADPQMCA (ACIEEGQYCHADPQMCA-Sar6-K; fluorescein-labelled; cyclised on TATA, also called (74-01-14)-Sar6-K) [BCY653] | 383 nM
25 | ACIEEGQYCYADPYYCA ([B-Ala]-Sar5-ACIEEGQYCYADPYYCA; fluorescein-labelled; cyclised on TATA, also called (B-Ala)-Sar5-(74-01-02)) [BCY637] | 122 nM
26 | ACIEEGQYCYADPYLCA (ACIEEGQYCYADPYLCA-Sar6-K; fluorescein-labelled; cyclised on TATA, also called (74-01-09)-Sar6-K) [BCY646] | 105 nM
27 | ACIEEGQYCFADPYMCA (G-Sar5-ACIEEGQYCFADPYMCA; fluorescein-labelled; cyclised on TATA, also called G-Sar5-(74-01-04)) [BCY641] | 152 nM
28 | CIEEGQYCFADKYMC (Ac-CIEEGQYCFADK(Peg12)YMC; fluorescein-labelled; cyclised on TATA, also called Ac-(74-01-04)Lys10(PEG12)) [BCY7247] | 239 nM
29 | CIEEGQYCFADPYKC (Ac-CIEEGQYCFADPYK(Peg12)C; fluorescein-labelled; cyclised on TATA, also called Ac-(74-01-04)Lys12(PEG12)) [BCY7249] | 288 nM
30 | ACIEEGQYCYADPYMCA ([B-Ala]-Sar5-ACIEEGQYCYADPYMCA; fluorescein-labelled; cyclised on TATA, also called (B-Ala)-Sar5-(74-01-01)) [BCY635] | 126 nM
31 | ACIEEGQYCYRDMYMCA ([B-Ala]-Sar5-ACIEEGQYCYRDMYMCA; fluorescein-labelled; cyclised on TATA, also called (B-Ala)-Sar5-(74-01-00)) [BCY633] | 1840 nM
32 | CIKEGQYCFADPYMC (Ac-CIK(Peg12)EGQYCFADPYMC; fluorescein-labelled; cyclised on TATA, also called Ac-(74-01-04) Lys2(PEG12)) [BCY7239] | 579 nM
33 | ACLDEGPYCFADPYFCA (ACLDEGPYCFADPYFCA-Sar6-K; fluorescein-labelled; cyclised on TATA, also called (74-01-20-N002)-Sar6-K) [BCY7253] | 183 nM
34 | CIEEGQYCFADPKMC (Ac-CIEEGQYCFADPK(Peg12)MC; fluorescein-labelled; cyclised on TATA, also called Ac-(74-01-04)Lys11(PEG12)) [BCY7248] | 744 nM
35 | ACIEEGQYCYADPYLCSVG (ACIEEGQYCYADPYLCSVG-Sar6-K; fluorescein-labelled; cyclised on TATA, also called (74-01-09-T03)-Sar6-K(Fl)) [BCY647] | 392 nM
36 | ACIEQGPFCFADPYMCA (ACIEQGPFCFADPYMCA-Sar6-K; fluorescein-labelled; cyclised on TATA, also called (74-01-22-N002)-Sar6-K) [BCY7257] | 109 nM
37 | ACDEWGLFCIPHSDCA ([B-Ala]-Sar5-ACDEWGLFCIPHSDCA; fluorescein-labelled; cyclised on TATA, also called (B-Ala)-Sar5-(74-02-00)) [BCY657] | 3620 nM
38 | ACLDPGPFCFADPYMCA (ACLDPGPFCFADPYMCA-Sar6-K; fluorescein-labelled; cyclised on TATA, also called (74-01-19-N002)-Sar6-K) [BCY7251] | 193 nM
39 | CIEEGQYCKADPYMC (Ac-CIEEGQYCK(Peg12)ADPYMC; fluorescein-labelled; cyclised on TATA, also called Ac-(74-01-04)Lys7(PEG12)) [BCY7244] | 296 nM
40 | CIEKGQYCFADPYMC (Ac-CIEK(Peg12)GQYCFADPYMC; fluorescein-labelled; cyclised on TATA, also called Ac-(74-01-04)Lys3(PEG12)) [BCY7240] | 384 nM

Molecular target: T1, human CD137 protein (direct binding …)
Test: FP direct binding
Remark: another data set of the same source

Row | Binder | Kd
41 | ACIEEGQYCFADPYACA ([PEG3]-ACIEEGQYCFADPYACA; fluorescein-labelled; cyclised on TATA, also called [PEG3]-(74-01-04) Ala12) [BCY7293] | 417 nM

Molecular target: T1, human CD137 protein (direct binding …)
Test: FP direct binding
Remark: another data set of the same source

Row | Binder | Kd
42 | B1 | 414 nM
43 | ACIEEGQYCFADPYFCA ([PEG3]ACIEEGQYCFADPYFCA; fluorescein-labelled; cyclised on TATA, also called [PEG3]-(74-01-04) Phe12) [BCY7214] | 50.1 nM
44 | ACIEEGQYCFADPYICA ([PEG3]ACIEEGQYCFADPYICA; fluorescein-labelled; cyclised on TATA, also called [PEG3]-(74-01-04)Ile12) [BCY7212] | 140 nM
45 | B2 | 326 nM
46 | B3 | 24 nM
47 | B4 | 546 nM

Molecular target: T2, human CD137 (AcroBiosystems) protein
Test: SPR (Biacore), amine-coupled CD137

Row | Binder | Kd
48 | ACIEEGQYCFADPYMCA (ACIEEGQYCFADPYMCA; cyclised on TATA, also called 74-01-04; 74-01-04-N002) [BCY592] | 70.9 nM
49 | ACIEEGQYCFADPYLCA (ACIEEGQYCFADPYLCA; cyclised on TATA, also called 74-01-11) [BCY599] | 191 nM
50 | ACLPPGPYCFPDPYFCA (ACLPPGPYCFPDPYFCA; cyclised on TATA, also called 74-22-03) [BCY631] | 92.3 nM
51 | HEHCIEEGQYCYADPYMCA (HEHCIEEGQYCYADPYMCA; cyclised on TATA, also called 74-01-01-T01) [BCY589] | 124 nM

Molecular target: T1, human CD137 protein (direct binding …)
Test: FP direct binding; D-Ala at position 4 (D-Ala4 Nle12)

Row | Binder | Kd
52 | B5 | 25.2 nM

Molecular target: T3, Recombinant human CD137 homotrimer (R&D …)
Test: SPR (Biacore T200), biotinylated CD137 on streptavidin

Row | Binder | Kd
53 | ACIEEGQYCFADPYMCA (ACIEEGQYCFADPYMCA; cyclised on TATA, also called 74-01-04; 74-01-04-N002) [BCY592] | 41.8 nM
54 | CIEEGQYCFADPYMC ([Ac]CIEEGQYCFADPYMC; cyclised on TATA, also called Ac-(74-01-04)) [BCY593] | 37 nM
55 | ACIEEGQYCFADPYMCA ([Ac]ACIEEGQYCFADPYMCA; cyclised on TATA, also called Ac-A-(74-01-04)-A) [BCY9273] | 108 nM
